Here are results for 30 molecules from PubChem BioAssay AID1091 (ChemBank, 2008).

The structures appear in SMILES notation. The list shows a part of the results, in another mix than the full data. Active and inactive are the calls of the source.

The nature of the experiment: S. cerevisiae growth modulation with rapamycin, primary screen, strain BY4716, OD600, 96 h (AID 1091). Further: test concentration not given here. The settings on record: higher = more signal, called active from +8 up or from −8 down.
On to `COP(=O)(/N=C1/CC(CCCO)=CC(C2CC2)N1Cc1cc2c(cc1Br)OCO2)OC` (stereo not given), for which the z-score is inactive: -1.36.
With `O=P(/N=C1/CC(CCCO)=CC(C2CC2)N1Cc1cc2c(cc1Br)OCO2)(Oc1ccccc1)Oc1ccccc1` (stereo not given), the z-score was inactive: -2.07.
In the case of `COP(=O)(/N=C1/CC(CCCO)=CC(C2CC2)N1Cc1cccc(OC(F)(F)F)c1)OC` (stereo not given) it was inactive: -1.15; in that of `CN1/C(=N\P(=O)(Oc2ccccc2)Oc2ccccc2)CC(CCCO)=CC1c1cccs1` (stereo not given), inactive: 0.224.
`O=P(/N=C1/CC(CCCO)=CC(c2cccs2)N1Cc1cccc(OC(F)(F)F)c1)(Oc1ccccc1)Oc1ccccc1` (stereo not given): the z-score was inactive: -2.1.
As for `CN1/C(=N\P(=O)(Oc2ccccc2)Oc2ccccc2)CC(c2ccc(CO)cc2)=CC1C1CC1` (stereo not given), the z-score is inactive: 2.16.
With `CC1C=C(CCCO)C/C(=N/P(=O)(Oc2ccccc2)Oc2ccccc2)N1Cc1cccc(OC(F)(F)F)c1` (stereo not given) the figure was inactive: 1.08; with `O=P(/N=C1/CC(CCCO)=CC(c2ccc(CN3CCCC3)cc2)N1Cc1cc2c(cc1Br)OCO2)(Oc1ccccc1)Oc1ccccc1` (stereo not given), inactive: -1.06; with `COP(=O)(/N=C1/CC(CCCO)=CC(c2ccc(CN3CCCC3)cc2)N1Cc1cc2c(cc1Br)OCO2)OC` (stereo not given), inactive: -1.55.
For `O=P(/N=C1/CC(CCCO)=CC(C2CC2)N1Cc1cccc(OC(F)(F)F)c1)(Oc1ccccc1)Oc1ccccc1` (stereo not given), the z-score was inactive: -1.25.
For the molecule `COP(=O)(/N=C1/CC(c2ccc(CO)cc2)=CC(c2cccs2)N1C)OC` (stereo not given), the z-score is inactive: 2.54.
In the case of `O=P(/N=C1/CC(c2ccc(CO)cc2)=CC(c2cccs2)N1Cc1cccc(OC(F)(F)F)c1)(Oc1ccccc1)Oc1ccccc1` (stereo not given) it was inactive: 4.84.
With `O=P(/N=C1/CC(c2ccc(CO)cc2)=CC(C2CC2)N1Cc1cc2c(cc1Br)OCO2)(Oc1ccccc1)Oc1ccccc1` (stereo not given), the z-score is inactive: 2.27.
With `CN1/C(=N\P(=O)(Oc2ccccc2)Oc2ccccc2)CC(CCCO)=CC1c1ccc(CN2CCCC2)cc1` (stereo not given) the figure was inactive: -0.122; with `COP(=O)(/N=C1/CC(CCCO)=CC(c2ccc(CN3CCCC3)cc2)N1Cc1cccc(OC(F)(F)F)c1)OC` (stereo not given), inactive: -0.97.
On to `O=P(/N=C1/CC(CCCO)=CC(c2cccs2)N1Cc1cc2c(cc1Br)OCO2)(Oc1ccccc1)Oc1ccccc1` (stereo not given), for which the z-score is inactive: -1.9.
With `COP(=O)(/N=C1/CC(c2ccc(CO)cc2)=CC(C2CC2)N1Cc1sc2ccccc2c1Cl)OC` (stereo not given) the figure was inactive: -1.57.
Turning to `CN1/C(=N\P(=O)(Oc2ccccc2)Oc2ccccc2)CC(c2ccc(CO)cc2)=CC1c1cccs1` (stereo not given), the z-score is inactive: 4.04.
As to `COP(=O)(/N=C1/CC(CCCO)=CC(c2cccs2)N1C)OC` (stereo not given), the z-score was inactive: -1.42.
For `COP(=O)(/N=C1/CC(CCCO)=CC(c2ccc(CN3CCCC3)cc2)N1C)OC` (stereo not given), the z-score is inactive: -0.545.
`COP(=O)(/N=C1/CC(CCCO)=CC(C2CC2)N1C)OC` (stereo not given): the z-score was inactive: -0.385.
Regarding `COP(=O)(/N=C1/CC(CCCO)=CC(C)N1Cc1cccc(OC(F)(F)F)c1)OC` (stereo not given), the z-score was inactive: 0.182.
As for `COP(=O)(/N=C1/CC(c2ccc(CO)cc2)=CC(C2CC2)N1C)OC` (stereo not given), the z-score is inactive: 1.04.
In the case of `COP(=O)(/N=C1/CC(CCCO)=CC(C2CC2)N1Cc1sc2ccccc2c1Cl)OC` (stereo not given) it was inactive: -1.42; in that of `O=P(/N=C1/CC(CCCO)=CC(C2CC2)N1Cc1sc2ccccc2c1Cl)(Oc1ccccc1)Oc1ccccc1` (stereo not given), inactive: -0.869.
`COP(=O)(/N=C1/CC(c2ccc(CO)cc2)=CC(C2CC2)N1Cc1cc2c(cc1Br)OCO2)OC` (stereo not given): the z-score was inactive: -0.465.
For the molecule `COP(=O)(/N=C1/CC(CCCO)=CC(c2ccc(CN3CCCC3)cc2)N1Cc1sc2ccccc2c1Cl)OC` (stereo not given), the z-score is inactive: -1.14.
With `CN1/C(=N\P(=O)(Oc2ccccc2)Oc2ccccc2)CC(CCCO)=CC1C1CC1` (stereo not given) the figure was inactive: -1.33.
Consider `O=P(/N=C1/CC(CCCO)=CC(c2ccc(CN3CCCC3)cc2)N1Cc1sc2ccccc2c1Cl)(Oc1ccccc1)Oc1ccccc1` (stereo not given), for which the z-score is inactive: -2.35.
As for `O=P(/N=C1/CC(c2ccc(CO)cc2)=CC(C2CC2)N1Cc1sc2ccccc2c1Cl)(Oc1ccccc1)Oc1ccccc1` (stereo not given), the z-score was inactive: 0.498.
